The test concerns the target T1, Recombinant human JAK2 (catalytic domain, amino acids 808-1132) (Homo sapiens, UniProt O60674).
T1 construct: catalytic domain, amino acids 808-1132
The test is described as follows: JAK2 inhibition assay. Note: 0.7 µM ATP. It is filed as biochemical. The conditions noted are these: read-out: JAK2 potency IC50. Here is the method: After 60 min at room temperature, reactions are stopped by adding 20 μL/well of detection mixture (1× detection buffer (Perkin Elmer, catalog number CR97-100) with 0.5 nM Europium-anti-phosphotyrosine (PT66) (Perkin Elmer, catalog number AD0068/AD0069) and 10 mM EDTA). […] Kinase activity is calculated by subtracting the ratio obtained in the presence of a positive control inhibitor (1 μM staurosporine) from the ratio obtained in the presence of vehicle. The ability of a test compound to inhibit this activity (or percentage inhibition) is determined as:
[formula] wherein Fluorescent ratio test compound=ratio RFU665/RFU615*1000 determined for sample with test compound present Fluorescent ratio control=ratio RFU665/RFU615*1000 determined for sample with positive control inhibitor Fluorescent ratio vehicle=ratio RFU665/RFU615*1000 determined in the presence of vehicle
Dose dilution series are prepared for compound enabling the testing of dose-response effects in the JAK2 assay and the calculation of the IC50 for the compound. Each compound is routinely tested at concentration of 20 μM followed by a 1/5 serial dilution, 10 points in a final concentration of 1% DMSO. […] The data are expressed as the average IC50 from the assays.

Amino acid sequences for entries named in this document (tags omitted). Residues count along the entry.
UniProt O60674, 808-1132: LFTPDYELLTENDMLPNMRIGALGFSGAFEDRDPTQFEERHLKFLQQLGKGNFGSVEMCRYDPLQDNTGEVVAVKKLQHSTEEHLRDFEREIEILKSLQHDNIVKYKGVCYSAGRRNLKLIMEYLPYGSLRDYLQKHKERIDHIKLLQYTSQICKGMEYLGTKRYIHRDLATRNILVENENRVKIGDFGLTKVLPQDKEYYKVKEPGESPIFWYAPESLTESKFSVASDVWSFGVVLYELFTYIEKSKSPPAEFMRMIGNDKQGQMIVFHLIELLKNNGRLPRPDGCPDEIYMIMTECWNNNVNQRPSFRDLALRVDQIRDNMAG

The structures appear in SMILES notation.

Consider `Cc1cc(S(C)(=O)=O)cc(F)c1Oc1cc(Nc2cc(N)ncn2)c2ncn(C)c2n1` [Compound 2, N-[5-(2-Fluoro-4-methanesulfonyl-6-methyl-phenoxy)-3-methyl-3H-imidazo[4,5-b]pyridin-7-yl]-pyrimidine-4,6-diamine], for which the half-inhibitory concentration (IC50) stood at 19.4 nM.

The record behind these values is patent US11564923B2, “Compounds and pharmaceutical compositions thereof for the treatment of inflammatory disorders” (Galapagos NV, priority 2017, dated 2023).
